The data set deals with replicon cells. Description: Cytotoxic effects in replicon cells. Type of data set: cell-based, human. As to conditions: alone or both in combination. The source says:
As a model system for HCV replication there were utilized three replicon cell lines provided by Prof. R. Bartenschlager (University of Heidelberg, Germany).

One compound from patent US7341717B2, “Therapeutic targets for treatment of HCV infections, methods of treating HCV infections and compounds useful therefor” (priority 2001, dated 2008) can be followed below.

The structures appear in SMILES notation.

On to `CC1=C(/C=C/C(C)=C/C=C/C(C)=C/C(=O)O)C(C)(C)CCC1` [all-trans-retinoic acid], for which the severe cytotoxic effects entry is recorded as “neither observed”.
